The values that follow are results of earlier work, collected in paper PMC4234442 (Journal of Medicinal Chemistry, 2014).

By UniProt entry, the sequences of proteins in these tests, tags left out. Where a name states a change or a piece, a line headed by the entry shows the natural chain unless it says otherwise.
UniProt Q9Y5X5: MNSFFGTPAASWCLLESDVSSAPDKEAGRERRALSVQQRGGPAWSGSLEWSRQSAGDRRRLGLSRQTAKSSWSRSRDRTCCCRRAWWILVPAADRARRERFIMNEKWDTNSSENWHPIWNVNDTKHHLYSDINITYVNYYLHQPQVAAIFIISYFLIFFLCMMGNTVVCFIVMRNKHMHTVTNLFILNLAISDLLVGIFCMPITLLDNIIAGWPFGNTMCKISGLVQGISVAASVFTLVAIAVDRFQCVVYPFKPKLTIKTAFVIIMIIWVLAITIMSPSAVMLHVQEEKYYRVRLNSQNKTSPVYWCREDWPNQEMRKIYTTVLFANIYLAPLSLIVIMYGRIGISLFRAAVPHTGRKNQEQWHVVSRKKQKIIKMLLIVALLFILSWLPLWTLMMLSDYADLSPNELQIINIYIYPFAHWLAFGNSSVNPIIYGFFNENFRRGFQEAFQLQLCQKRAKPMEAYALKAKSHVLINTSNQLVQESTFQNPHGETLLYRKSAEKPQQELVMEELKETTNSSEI

The series concerns the target NPFF2-R (Homo sapiens, UniProt Q9Y5X5). To be noted: read-out: Ki in CHO hNPFF2-R; cited from earlier work.

As usually defined, the Ki is a dissociation constant, usually derived from enzyme kinetics or from competition with a known ligand. FLFQPQRFa [NPFF]: the Ki was 0.34 nM.
